Consider one compound from ChEMBL document CHEMBL1135338, “Protease inhibitors: synthesis of matrix metalloproteinase and bacterial collagenase inhibitors incorporating 5-amino-2-mercapto-1,3,4-thiadiazole zinc binding functions” (Bioorg Med Chem Lett, 2002).

By UniProt entry, the sequences of proteins in these tests, tags left out. Where a name states a change or a piece, a line headed by the entry shows the natural chain unless it says otherwise.
UniProt P14780: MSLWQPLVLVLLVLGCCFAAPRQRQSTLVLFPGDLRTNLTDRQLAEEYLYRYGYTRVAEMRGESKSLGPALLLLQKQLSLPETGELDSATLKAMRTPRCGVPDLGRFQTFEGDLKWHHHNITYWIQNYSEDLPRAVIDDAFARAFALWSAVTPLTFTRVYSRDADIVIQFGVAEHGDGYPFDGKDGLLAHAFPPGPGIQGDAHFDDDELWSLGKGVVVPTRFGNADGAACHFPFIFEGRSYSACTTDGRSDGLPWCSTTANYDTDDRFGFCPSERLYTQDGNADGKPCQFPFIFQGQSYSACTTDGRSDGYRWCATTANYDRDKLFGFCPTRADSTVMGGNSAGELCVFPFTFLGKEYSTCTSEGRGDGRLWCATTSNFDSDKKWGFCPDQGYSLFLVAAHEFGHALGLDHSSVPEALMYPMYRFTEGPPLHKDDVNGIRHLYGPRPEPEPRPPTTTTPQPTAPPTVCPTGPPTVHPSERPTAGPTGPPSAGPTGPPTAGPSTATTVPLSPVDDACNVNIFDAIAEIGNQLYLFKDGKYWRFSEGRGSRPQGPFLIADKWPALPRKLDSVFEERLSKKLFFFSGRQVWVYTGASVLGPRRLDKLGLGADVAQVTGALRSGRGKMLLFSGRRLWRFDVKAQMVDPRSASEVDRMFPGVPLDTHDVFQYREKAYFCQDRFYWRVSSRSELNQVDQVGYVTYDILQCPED

This experiment addresses Matrix metalloproteinase-9 (Homo sapiens, UniProt P14780). Put plainly: Inhibition of human matrix metalloprotease-9.

In turn, `COc1ccc(S(=O)(=O)N(Cc2ccccc2)c2c(C)cccc2C(=O)NO)cc1` had a Ki of 23 nM.

For orientation: Ki means the equilibrium dissociation constant of an inhibitor or competing ligand from its target.
